Results published in ChEMBL document CHEMBL1146639, “Synthesis and evaluation of nonpeptide substituted spirobenzazepines as potent vasopressin antagonists” (Bioorg Med Chem Lett, 2004).

By UniProt entry, the sequences of proteins in these tests, tags left out.
UniProt Q00788, whole entry: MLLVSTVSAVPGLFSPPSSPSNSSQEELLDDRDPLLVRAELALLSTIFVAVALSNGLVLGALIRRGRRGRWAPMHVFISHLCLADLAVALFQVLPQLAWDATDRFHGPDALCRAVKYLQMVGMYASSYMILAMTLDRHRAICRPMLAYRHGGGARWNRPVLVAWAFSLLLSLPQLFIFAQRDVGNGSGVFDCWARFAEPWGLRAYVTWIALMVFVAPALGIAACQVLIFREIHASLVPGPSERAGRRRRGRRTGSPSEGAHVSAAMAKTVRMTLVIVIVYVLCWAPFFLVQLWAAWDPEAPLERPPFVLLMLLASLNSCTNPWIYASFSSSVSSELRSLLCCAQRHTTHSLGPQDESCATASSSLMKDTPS

Target: Vasopressin V2 receptor (Rattus norvegicus, UniProt Q00788)
Experiment: Evaluated for binding affinity towards vasopressin V2 receptor in rat
Method in brief: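 Binding IC50 measured in cells transfected with rat V1a or rat V2 receptors.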

Compound: CN(C)CCNC(=O)C1=C[C@]2(CC1)CCN(C(=O)c1ccc(NC(=O)c3ccccc3-c3ccccc3)cc1)c1ccccc1C2
- IC50: 5 nM
